These are literature values, as cited in US20200315984A1 (priority 2013, published 2020).

This is a selection: effects in other tests are not listed, and their absence says nothing.

In general, pKa refers to the negative logarithm of the acid dissociation constant.

The conditions of the data set: cited from earlier work.
As to `CCC(=O)N(c1ccccc1)C1(C(=O)OC)CCN(CCC(=O)OC)CC1`, the pKa was 7.
Take `CCC(=O)N(c1ccccc1)C1(COC)CCN(CCn2nnn(CC)c2=O)CC1`: the pKa is 6.5.
Regarding fentanil, the pKa is 8.4.
Consider `CCC(=O)N(c1ccccc1)C1(COC)CCN(CCc2cccs2)CC1`, for which the pKa was 8.
